Experimental data from ChEMBL document CHEMBL5653621, “Freezing the Bioactive Conformation to Boost Potency: The Identification of BAY 85-8501, a Selective and Potent Inhibitor of Human Neutrophil Elastase for Pulmonary Diseases” (ChemMedChem, 2015).

The chains behind the UniProt entries cited, without tags or fusion partners. Residues count along the entry.
UniProt P00742, 41-179 limits assumed: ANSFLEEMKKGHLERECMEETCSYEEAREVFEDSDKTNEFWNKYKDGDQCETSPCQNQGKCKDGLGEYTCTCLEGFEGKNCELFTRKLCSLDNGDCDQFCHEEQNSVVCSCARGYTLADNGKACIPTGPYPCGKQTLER
UniProt P00742, 235-488 limits assumed: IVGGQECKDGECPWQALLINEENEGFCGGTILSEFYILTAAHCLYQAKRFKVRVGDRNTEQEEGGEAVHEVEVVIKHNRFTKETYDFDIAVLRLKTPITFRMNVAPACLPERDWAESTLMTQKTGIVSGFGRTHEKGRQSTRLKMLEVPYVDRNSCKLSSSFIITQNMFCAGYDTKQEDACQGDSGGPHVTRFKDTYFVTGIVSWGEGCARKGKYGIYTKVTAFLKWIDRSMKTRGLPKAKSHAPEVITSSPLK

Key:
[1] = target: Urokinase-type plasminogen activator (Homo sapiens, UniProt P00749)
Neutrophil elastase [2] = target: T1, Neutrophil elastase (Homo sapiens, UniProt P08246)
T1 sequence (P08246 whole entry): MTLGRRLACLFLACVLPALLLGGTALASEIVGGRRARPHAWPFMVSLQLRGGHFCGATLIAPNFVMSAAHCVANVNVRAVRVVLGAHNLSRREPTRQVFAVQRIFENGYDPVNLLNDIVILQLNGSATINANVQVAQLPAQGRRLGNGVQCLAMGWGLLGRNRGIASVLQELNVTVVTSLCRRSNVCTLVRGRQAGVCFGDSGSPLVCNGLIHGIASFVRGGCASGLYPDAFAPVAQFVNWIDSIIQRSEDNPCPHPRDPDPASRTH

Coagulation factor X = Coagulation factor X (Homo sapiens, UniProt P00742)
Prothrombin = Prothrombin (Homo sapiens, UniProt P00734)
Neutrophil elastase [3] = target: T1, Neutrophil elastase; remark: listed apart in the source

Row | SMILES | IC50 [1] [µM] | Ki (Neutrophil elastase [2]) [nM] | IC50 (Coagulation factor X) [µM] | IC50 (Prothrombin) [µM] | IC50 (Neutrophil elastase [3]) [µM]
1 | CC(=O)C1=C(C)N(c2cccc(C(F)(F)F)c2)C(=O)N[C@@H]1c1ccc(C#N)nc1 [BAY-678] | > 30 | 15 | > 30 | > 30 | 
2 | CC1=C(C#N)[C@@H](c2ccc(C#N)cc2S(C)(=O)=O)N(C)C(=O)N1c1cccc(C(F)(F)F)c1 | > 30 | 0.08 | > 30 | > 30 | 0.00014
